Biological target: β2-AR (Homo sapiens, UniProt P07550)
Type: binding
Details: marker [3H]-CGP-12177

Structure (SMILES): C[C@H](Cc1ccc(O)cc1)NC[C@H](O)c1cc(O)cc(O)c1 [(R,R′)-1, (R,R′)-Fenoterol]
- HS (Hill coefficient), displacement of [3H]-CGP-12177: 0.92 ± 0.1
